Rows were chosen to be rich in hits. Some 13% of all compounds tested hit in one or more screens of this group.
Lamin A splicing – changes lamin A minigene splicing in HeLa cells; HeLa LMNA splicing GFP/RFP minigene ratio, 48 h; Potency, µM (top dose mostly 46.1 µM), for the others: at the top dose ratio change, negative = inhibition, hits mostly inhibitors; actives 0.01% (n = 200,000); AID 1487; active = well fitted inhibition curve with a large enough effect in the signal ratio, with a control signal flat, not every such curve was filed as active; inconclusive = small, poorly fitted or top-dose-only effect, or effect the other way, or a change in a side signal; the % refers to the signal ratio; note: potency is the fitted concentration of half-maximal effect; % is set by controls: 0 for no effect and ±100 for the full control effect
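S3 HeLa stable clones carrying a lamin A-EGFP splicing minigene plus DsRed2 were seeded at 600 cells/well in Opti-MEM with 2% FBS, pin-dosed and incubated 48 h at 37°C. Acumen cytometry (488 nm) gave the GFP/RFP total-intensity ratio.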
JMJD2E inh – blocks human JMJD2E demethylase activity; B2RXH2; JMJD2E catalytic domain, FDH-coupled NADH fluorescence (FDH is formaldehyde dehydrogenase); Potency, µM (titrated, usually from 57.1 µM), inactives show top-dose activity change, negative = inhibition, actives largely listed as inhibitors; actives 1.6% (n = 230,000); AID 2147; active = well fitted inhibition curve with a large enough effect, not every such curve was filed as active; inconclusive = small, poorly fitted or top-dose-only effect, or another doubt; inactive = no such curve, though single readings can be large or run the other way;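 note: potency is the fitted concentration of half-maximal effect; 0% = wells with enzyme and -100% = buffer wells without enzyme; nearly all actives have a fitted effect of over 50% in size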
ALDH1A1 inh – blocks purified human ALDH1A1 activity | P00352 | Purified ALDH1A1, NADH fluorescence, propionaldehyde substrate | Potency, µM (series often up to 75.3 µM), inactives show at the highest dose activity, negative = inhibition, most hits filed as inhibitors | actives 7.3% (n = 220,000); active = well fitted inhibition curve with a large enough effect, not every such curve was filed as active; inconclusive = small, poorly fitted or top-dose-only effect, or another doubt; inactive = no such curve, though single readings can be large or run the other way;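 note: potency is the fitted concentration of half-maximal effect; plate controls were no enzyme wells and a reference inhibitor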
G9a block – inhibitors of human histone lysine methyltransferase G9a. G9a H3K9 monomethylation, AlphaScreen, 2 h. actives 8.8% (n = 350,000). Potency, µM (highest dose often 102 µM), inactives show at the highest dose activity, negative = inhibition, actives largely listed as inhibitors; note: potency is the fitted concentration of half-maximal effect; % is set by controls: 0 for no effect and ±100 for the full control effect; nearly all actives have a fitted effect of over 75% in size
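Readings reflect AlphaScreen signal from monomethyl-H3K9 antibody detection. HMT at 20 nM; substrate b-H3K9 500 nM; cofactor SAM 20 uM; 2 h RT reaction; compounds tested as titrations in qHTS with 15 min preincubation.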
miR-21 reporter – raises the signal of a miR-21 reporter. HeLa miR-21 FLuc reporter, luciferase, 48 h. 340,000 tested, under 10 active. Potency, µM (highest dose often 38.3 µM), for the others: at the highest dose reporter change, positive = more light; active = well fitted rising curve with a large enough effect; inconclusive = small, poorly fitted or top-dose-only effect; inactive = no such curve, though single readings can be large or run the other way;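 note: % of control where 0% means no effect; miR-21 action dims this reporter so a rising signal means less miR-21 action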
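Compounds were titrated across several concentrations (up to approximately 40 uM) and incubated 48 hours with HeLa miR-21-FLuc reporter cells (miR-21 target sequence downstream of FLuc, endogenous miR-21). Readout was firefly luciferase luminescence after lytic detection reagent.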
Sfp inh – inhibitors of Bacillus subtilis Sfp phosphopantetheinyl transferase; actives 3.5% (n = 310,000); Q9F4F7; Biochemical Sfp PPTase activity, qHTS; Potency, µM, for the others: max response, negative = inhibition, hits mostly inhibitors; active = well fitted inhibition curve with a large enough effect; inconclusive = small, poorly fitted or top-dose-only effect, or another doubt; inactive = no such curve, though single readings can be large or run the other way;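 also: the enzyme is Sfp with the accession as filed and its product quenches rhodamine fluorescence; potency is read from the fitted curve at half-maximal effect; 0% = enzyme reaction without inhibitor and -100% = no enzyme wells; top concentration of the series not given in the record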
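Fluorescence-quenching assay with 15 nM Sfp, 5 uM rhodamine-CoA and 12.5 uM BHQ-2-labelled ybbR peptide in pH 7.6 Hepes/MgCl2 buffer. Enzyme was pre-incubated with compound for 15 min at room temperature. Rate was taken from the 30-min fluorescence change (525/598 nm).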
Active calls of the source: *; ? = inconclusive; nt = not tested or not shown; [ ] = another dose, or the depositor's remark. Unless noted, calls come from the whole dose curve; as a rule, active = well fitted curve in the direction sought with a large enough effect; inconclusive = small, poorly fitted or top-dose-only effect, or another doubt; inactive = no such curve, though single readings can be large; an effect the other way counts as inactive or inconclusive.

Screens by letter: A = Lamin A splicing; B = JMJD2E inh; C = ALDH1A1 inh; D = G9a block; E = miR-21 reporter; F = Sfp inh
(1) COC(=O)c1cc(CC(=O)c2ccc(O)cc2O)c(C)o1
  A: 3%; B: -1%; C: 5%; D: 95%[59 µM]; E: -12%; F: 10%
(2) COC(=O)c1ccc(CC(=O)c2ccc(O)cc2O)o1
  A: 16%; B: ?; C: ?; D: 22µM*; E: 13%; F: -30%
(3) CCOC(=O)c1ccc(OCC(=O)c2ccc(O)cc2O)cc1
  A: ?; B: 0%; C: -8%; D: 10%; E: -32%; F: -6%
(4) COC(=O)c1ccc(CC(=O)c2c(C)cc(O)cc2O)o1
  A: -7%; B: 18µM*; C: 28µM*; D: 45µM*; E: -10%; F: 40µM*
(5) Cc1ccc(N2CC(NC(=O)C3CC3)CC2=O)cc1 (stereo unspecified)
  A: nt; B: nt; C: nt; D: -35%; E: nt; F: nt
(6) Cn1c(=O)n(C)c2cc(NS(=O)(=O)c3ccc4c(c3)CCCC4)ccc21
  A: ?; B: 4%; C: 1µM*; D: -33%[12.7 µM]; E: 18%; F: 2%
(7) CC(C)(C)c1ccc(S(=O)(=O)Nc2ccc3c(c2)COC3=O)cc1
  A: nt; B: 9%; C: 4.5µM*; D: nt; E: -30%; F: 1%
(8) Cc1cc(S(=O)(=O)Nc2ccc3c(c2)COC3=O)ccc1F
  A: ?; B: ?; C: ?; D: 6%; E: -13%; F: -10%
(9) Cc1ccc(NS(=O)(=O)c2ccc3c(c2)n(C)c(=O)n3C)cc1
  A: nt; B: nt; C: nt; D: -12%[2.33 µM]; E: 3%; F: 9%
(10) Cn1c(=O)n(C)c2cc(NS(=O)(=O)c3ccc(C(C)(C)C)cc3)ccc21
  A: nt; B: 9%; C: 0.56µM*; D: ?; E: 13%; F: -10%
(11) COc1ccc(N2CCN(CCCNC(=O)C(=O)c3c[nH]c4ccccc34)CC2)cc1
  A: nt; B: nt; C: nt; D: 40µM*; E: 7%; F: -1%
(12) COc1ccc(Nc2cc(C(=O)NCCCN3CCOCC3)c3ccccc3n2)cc1OC
  A: 2%; B: -1%; C: 11%; D: -12%[59 µM]; E: 6%; F: 6%
(13) COc1ccc(Nc2cc(C(=O)NCCCN3CCN(c4ccc(OC)cc4)CC3)c3ccccc3n2)cc1
  A: ?; B: nt; C: nt; D: 11µM*; E: ?; F: nt
(14) COc1ccc(N2CCN(CCCNC(=O)c3c(C)nn(-c4ccc(F)cc4)c3-n3cccc3)CC2)cc1
  A: nt; B: nt; C: nt; D: 4.5µM*; E: 17%; F: nt
(15) COc1ccc(N2CCN(CCCNC(=O)c3cc(Nc4ccccc4OC)nc4ccccc34)CC2)cc1
  A: ?; B: nt; C: nt; D: 10µM*; E: 30%; F: nt
(16) Cc1ccc(-n2nc(C)c(C(=O)NCCCN3CCN(c4ccc(F)cc4)CC3)c2-n2cccc2)cc1
  A: nt; B: nt; C: nt; D: ?; E: -1%; F: nt
(17) CSc1cccc(NC(=O)N2CCN(c3cc(-c4noc(C)n4)ccc3C)CC2)c1
  A: -10%[46 µM]; B: nt; C: nt; D: 3%[59 µM]; E: 5%; F: nt
(18) COC(=O)c1ccc(C(NC(=O)OCc2ccccc2)/C(I)=C/[C@@H](C)C(=O)NCc2ccncc2)cc1 (stereo partly specified)
  A: nt; B: -6%; C: -11%; D: nt; E: nt; F: ?
(19) COc1ccc(/C(C)=N/NC(=S)NCCc2ccccc2)c(O)c1
  A: nt; B: nt; C: nt; D: 6%; E: 3%; F: 2%
(20) CCN(CC)CCNC(=O)c1cc(Nc2ccc(OC)c(OC)c2)nc2ccccc12
  A: nt; B: nt; C: nt; D: 71µM*; E: 3%; F: -9%
(21) COc1ccc(Nc2cc(C(=O)NCCCN3CCN(c4ccccc4F)CC3)c3ccccc3n2)c(OC)c1
  A: nt; B: nt; C: nt; D: 13µM*; E: ?; F: nt
(22) COc1ccc(Nc2cc(C(=O)NCCCN3CCOCC3)c3ccccc3n2)c(OC)c1
  A: 1%; B: 6%; C: 12%; D: 17%[12.7 µM]; E: 8%; F: 12%
(23) COc1ccc(Nc2cc(C(=O)NCCCN3CCN(C)CC3)c3ccccc3n2)cc1OC
  A: 9%; B: ?; C: ?; D: 3.5µM*; E: -12%; F: -20%
(24) COc1ccc(Nc2cc(C(=O)NCc3ccccc3)c3ccccc3n2)cc1OC
  A: nt; B: nt; C: nt; D: 3%[59 µM]; E: 0%; F: nt
(25) COc1ccc(N2CCN(CCCNC(=O)C3CCCN(S(=O)(=O)c4c(C)n[nH]c4C)C3)CC2)cc1 (stereo unspecified)
  A: nt; B: 0%; C: 9%; D: ?; E: 0%; F: 15%
(26) COc1ccc(N2CCN(CCCNC(=O)C3CCCN(S(=O)(=O)c4cnc[nH]4)C3)CC2)cc1 (stereo unspecified)
  A: -11%; B: ?; C: 2%; D: 50µM*; E: 0%; F: 3%
(27) CCOc1ccc(OC(=O)c2cn(-c3ccc(C)cc3)c(=O)c3ccccc23)cc1
  A: ?; B: nt; C: nt; D: 7%[59 µM]; E: 0%; F: nt
(28) CCN(CC)S(=O)(=O)c1ccc(NC(=O)c2ccc(Sc3nncn3C)c([N+](=O)[O-])c2)cc1
  A: -8%; B: 2%; C: ?; D: 14%[59 µM]; E: -2%; F: 2%
(29) CN(C)S(=O)(=O)c1cccc(NC(=O)c2ccc(Sc3nncn3C)c([N+](=O)[O-])c2)c1
  A: nt; B: -7%; C: 0.56µM*; D: -32%; E: 0%; F: -13%
(30) CCS(=O)(=O)c1ccc(Sc2nncn2C)c([N+](=O)[O-])c1
  A: -4%[9.22 µM]; B: -6%; C: 22µM*; D: ?; E: 17%; F: 0%
(31) Cc1ccc(CN(C(=O)COc2ccccc2[N+](=O)[O-])c2ccccn2)cc1
  A: 10%[46 µM]; B: nt; C: nt; D: -2%[59 µM]; E: -24%; F: nt
(32) CCOc1ccccc1NC(=O)CSC1=Nc2ccccc2C2=NC(CC(=O)NC3CCCCC3)C(=O)N12 (stereo unspecified)
  A: nt; B: nt; C: nt; D: -23%[59 µM]; E: 19%; F: nt
(33) COc1cccc(C(=O)NCCS(=O)(=O)N2CCC(C)CC2)c1
  A: nt; B: nt; C: nt; D: 35µM*; E: nt; F: nt
(34) COc1cc(OC)cc(C(=O)NCCS(=O)(=O)N2CCN(Cc3ccccc3)CC2)c1
  A: nt; B: nt; C: nt; D: 4%[0.501 µM]; E: nt; F: nt
(35) COC(=O)C1CCN(S(=O)(=O)CCNC(=O)c2cccc(OC)c2)CC1
  A: nt; B: nt; C: nt; D: 35µM*; E: nt; F: nt
(36) CCOC(=O)c1cc(-c2ccccc2)n(-c2cccc(C(=O)Nc3cccc(C)c3)c2)c1C
  A: -12%[46 µM]; B: nt; C: nt; D: ?; E: 11%; F: nt
(37) COc1cccc(-c2cc(=O)c3cc(O)ccc3o2)c1
  A: nt; B: 55%; C: -1%; D: nt; E: nt; F: 14%
(38) Cc1cccc(-c2cc(=O)c3cc(Br)ccc3o2)c1
  A: nt; B: -9%; C: -1%; D: nt; E: nt; F: 79µM*
(39) CCn1nc(C(=O)Nc2ccc(S(=O)(=O)Nc3nccs3)cc2)c2ccccc2c1=O
  A: ?; B: -3%; C: 28µM*; D: ?; E: -2%; F: -14%
(40) O=C(Nc1ccc(S(=O)(=O)Nc2ncccn2)cc1)c1nn(Cc2ccccc2)c(=O)c2ccccc12
  A: nt; B: ?; C: nt; D: ?; E: -9%; F: -8%
(41) O=C(Nc1ccc(S(=O)(=O)Nc2nccs2)cc1)c1nn(-c2ccccc2)ccc1=O
  A: nt; B: nt; C: nt; D: 22µM*; E: -11%; F: 1%
(42) O=C(CSc1ccc(Br)c2cccc(Cl)c12)Nc1ccc(S(=O)(=O)Nc2nccs2)cc1
  A: ?; B: -3%; C: -4%; D: 32µM*; E: -8%; F: 24%
(43) O=C(Nc1ccc(S(=O)(=O)Nc2nccs2)cc1)c1cccc(N2C(=O)c3ccccc3C2=O)c1
  A: nt; B: -3%; C: 7.1µM*; D: ?; E: 0%; F: -27%
(44) COCCCC1CCN(C(=O)C2CCC(=O)N(Cc3cccc(F)c3)C2)CC1 (stereo unspecified)
  A: nt; B: nt; C: nt; D: -6%[0.0925 µM]; E: 2%; F: 2%
(45) O=C(Nc1ccc(Br)cc1)c1cccc(C(=O)Nc2ccc(Br)cc2)c1
  A: nt; B: nt; C: nt; D: -2%[59 µM]; E: -22%; F: nt
(46) CCCc1nc(N2CCOCC2)c(C#N)c2c1CCCC2
  A: 15%; B: ?; C: -158%; D: 3%[59 µM]; E: -7%; F: 17%

Entries shown so far that have a tert-butyl group, in the order listed:
Screens by letter: A = Lamin A splicing; B = JMJD2E inh; C = ALDH1A1 inh; D = G9a block; E = miR-21 reporter; F = Sfp inh
(7) CC(C)(C)c1ccc(S(=O)(=O)Nc2ccc3c(c2)COC3=O)cc1
  A: nt; B: 9%; C: 4.5µM*; D: nt; E: -30%; F: 1%
(10) Cn1c(=O)n(C)c2cc(NS(=O)(=O)c3ccc(C(C)(C)C)cc3)ccc21
  A: nt; B: 9%; C: 0.56µM*; D: ?; E: 13%; F: -10%
